Assay results reported in US20250042939A1, “PREPARATION METHOD FOR OXIDIZED GLUTATHIONE AND CRYSTAL FORM AND IMPURITY THEREOF” (SHENYANG XINGQI PHARMACEUTICAL CO., LTD., priority 2021, published 2025).

Experiment: Saturation solubility of oxidized glutathione hydrate in water
Type: physicochemical
Conditions: H2O, 30° C.
Text: Moreover, compared with the powdered crystals of the hexahydrate which are prone to generate static electricity and suffer a large amount of loss during a packaging process, the granular crystals of the obtained heptahydrate are more suitable for industrial production.

oxidized glutathione monohydrate
Saturation solubility: 13.5 mg/mL
